AlphaSeq binding of Ab-14 light chain variants to a spike HR2 peptide

The measurements come from Li et al. 2023 (doi:10.1038/s41467-023-39022-2) through the FLAb antibody collection.

Target peptide (SARS-CoV-2 spike, HR2 region): PDVDLGDISGINAS

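The variants were designed computationally from a first round of random CDR variants and then made and measured. Several design methods are mixed in this list. Affinity was read by AlphaSeq, a pooled yeast mating assay with surface-displayed partners. The frequency of each diploid, read from paired DNA barcodes, reflects how well the two displayed proteins bind. Each replicate has its own calibration line, from reference interactions of the BCL2 family. Mating was done six times.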

Parent: Ab-14, a human scFv built as VH, a 15-residue (Gly4Ser)3 linker, VL. Only the CDRs of the light chain vary.
VH: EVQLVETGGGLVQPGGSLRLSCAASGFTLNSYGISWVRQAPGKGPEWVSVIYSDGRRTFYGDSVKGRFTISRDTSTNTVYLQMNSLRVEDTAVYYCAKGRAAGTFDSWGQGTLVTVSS
VL: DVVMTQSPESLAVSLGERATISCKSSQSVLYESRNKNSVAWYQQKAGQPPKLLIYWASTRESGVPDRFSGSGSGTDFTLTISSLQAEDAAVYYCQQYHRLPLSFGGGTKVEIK

Variants are written as CDR1, CDR2 and CDR3 of the light chain (limits as in the source). Parent: KSSQSVLYESRNKNSVA, WASTRES, QQYHRLPLS. Values are log10 of the apparent Kd in nM; lower means stronger binding. Replicates are averaged; those with no signal do not enter the mean. A pair that was not seen in any replicate is written "nd"; this usually means weak binding, but a binder can also be missed. The range of this assay differs from that of the first round, and the authors advise against merging the two. In the paper, a design with two or fewer of six values counts as a poor binder. The parent sequence was in this pool as ten entries: three were never detected, three once, and four in most replicates, with averages from 0.34 to 2.37. As a blank, each scFv also met three strains without target: over all light chain designs, 4% of these pairings were detected, typically at 2.64 and seldom below 1.59.

The variant ATDHQEESGQEWEANVA, QDEQRVE, QQYHHLPLM showed 2.04 (1 of 6 replicates).
The variant MLTMFANENAGKSKNIA, DTNQLNT, QQYQRLPFM showed 0.39 (6 of 6 replicates).
The variant KLSDPQELQYNKGQSVA, EASEVCA, QQFYRLPLV showed 0.92 (6 of 6 replicates).
The variant KLTMLTGTEKVRGNNVA, EMETREK, QQYNRLPLA showed 0.14 (6 of 6 replicates).
The variant KSSQSVLYESRNHNSVA, QASTRES, QQYHRLPLS showed 0.45 (6 of 6 replicates).
The variant KAEQGVLYESRNKNSVA, GASTRES, QQYHRLPLS showed 0.08 (6 of 6 replicates).
The variant KLSQSTLYESRNKNSVA, KASTRES, QQYHRPPLS showed nd (0 of 6 replicates).
The variant KVGQSFLQESRNKNSVA, HASMRES, QQYHRLPLS showed 0.11 (6 of 6 replicates).
The variant KSTGSVLYESNNKNSVA, WASRRES, QQYNRLPLS showed 2.20 (6 of 6 replicates).
The variant HVSMLTLGGLKQRNSVA, QMTTREN, QQYDRLPLS showed 0.63 (6 of 6 replicates).
The variant MISQIINMGQFAINSVA, QASLRCN, QQYDRLPLM showed 0.50 (6 of 6 replicates).
The variant KVKQKVLYESRNKNSVC, HASTRES, QQYHRLPLS showed 0.97 (6 of 6 replicates).
The variant KSSQSLLYESRNKNSVA, WASTREV, QQYHRLPLS showed 1.52 (5 of 6 replicates).
The variant KLRQVTGYESYQKNSVA, QTSTRAS, QDYHRLPLS showed 0.85 (6 of 6 replicates).
The variant KLREVIHVESKQKNNVA, DNSTREQ, QDYHRLPLS showed 1.70 (5 of 6 replicates).
The variant KLSESWLYESRNKNSVA, EASTRES, QQYHRLPLS showed 0.25 (6 of 6 replicates).
The variant KLSQSFWYEERNPNSVA, NASKRES, QQYHRLPLS showed -0.42 (6 of 6 replicates).
The variant ISSQSVLYESRNKNPVA, AASTRES, QQYHRLPLS showed 1.64 (6 of 6 replicates).
The variant KMSQGVLYESRNKNSVA, GASTRES, QQYHRLPLS showed -0.20 (6 of 6 replicates).
The variant KSSQSVLYEQRNFNSVA, WASTRES, QKYHRLPLS showed 2.65 (2 of 6 replicates).

Continued, with the values leading:

Result 0.72 (6 of 6 replicates), variant KISQMVRVGATHSNSIA, EEQTRAK, QQYHRLPLS.
Result 0.36 (6 of 6 replicates), variant KSYISHLYESRNKNSVA, EASTRES, QQYHRLPLS.
Result 1.24 (6 of 6 replicates), variant NFSQMVLTGYTLKNSVA, HASTREE, QQYHRLPLI.
Result 0.68 (6 of 6 replicates), variant KLQQQEQYESRNWNSVA, NASDRQS, QQYHRLPLS.
Result -0.07 (6 of 6 replicates), variant KLSQSVMYESRNKNSVA, EASQRES, QQYHRLPLS.
Result -0.11 (6 of 6 replicates), variant NIYQAMHTLSQMKDNVA, DVNERGD, QQYYRLPLS.
Result 0.01 (6 of 6 replicates), variant KLSQSDLYEQRNKNSVA, EASTRES, QQYHRLPLS.
Result -0.33 (6 of 6 replicates), variant KLSQSVLYEERNKNSVA, AASTRES, QQYHRLPLS.
Result -0.11 (6 of 6 replicates), variant KSSQSVLIESRNKNSVA, DASTRES, QQYHRLPLS.
Result 0.29 (6 of 6 replicates), variant TISQSWFIESKNKNNVA, EMTTREN, QDYDRLPLS.
Result 1.02 (5 of 6 replicates), variant HMSALTLQGMRARNSVA, QMTTREN, QQYDHLPLA.
Result 0.17 (6 of 6 replicates), variant KLQQWHLYESRMKNSVA, HASQRES, QCYHRLPLS.
Result -0.12 (6 of 6 replicates), variant KLSQSVMGESRNKNSVA, NASTRES, QQYHRLPLS.
Result 0.76 (6 of 6 replicates), variant KMSGSVLYESRNKNSVA, RASTRES, QQYHRLPLS.
Result nd (0 of 6 replicates), variant RSSISVLYELRNKNSVA, WASTRES, QQYHRLPLS.
Result 0.28 (6 of 6 replicates), variant KSSQSVGFESRNKNSVA, DASTRES, QQYHRLPLS.
Result -0.25 (6 of 6 replicates), variant KFSQSVPYESRNKNSVA, EASTRES, QQYHRLPLS.
Result 3.63 (2 of 6 replicates), variant KLYYHEVGEVNGSNSIA, ETDQLTF, QQYSHLPLS.
Result 2.08 (2 of 6 replicates), variant KSSQSVLYESRNKNSVA, KASTRES, QQYHRLPLS.
Result 0.63 (6 of 6 replicates), variant KISYLGEYFSTNHSAIA, QASTREQ, QQYHRLPLS.

Extract of 5 entries:

With KAEQGVLYESRNKNSVA, GASTRES, QQYHRLPLS the result was 0.08 (6 of 6 replicates).
With ATDHQEESGQEWEANVA, QDEQRVE, QQYHHLPLM the result was 2.04 (1 of 6 replicates).
With KLSDPQELQYNKGQSVA, EASEVCA, QQFYRLPLV the result was 0.92 (6 of 6 replicates).
With KISQMVRVGATHSNSIA, EEQTRAK, QQYHRLPLS the result was 0.72 (6 of 6 replicates).
With KSSQSVGFESRNKNSVA, DASTRES, QQYHRLPLS the result was 0.28 (6 of 6 replicates).